{"source": "paper PMC9405135", "about": "“Tuning the Biological Activity of Camphorimine Complexes through Metal Selection” (Antibiotics, 2022)", "test_system": "OVCAR3 cells", "experiment": "MTT cytotoxicity, OVCAR3 ovarian cancer cells", "details": "read-out: IC50 OVCAR3, 24 h incubation", "note": "This is a selection: effects in other tests are not listed, and their absence says nothing.", "data": [{"substance": "Gold potassium dicyanide", "values": [{"measurement": "IC50", "result": 490, "unit": "nM"}]}]}
